{
  "sequences": {"note": "Protein sequences, listed by entry. Tags and fused reporters are not part of them.", "UniProt Q14191, whole entry, looked up": "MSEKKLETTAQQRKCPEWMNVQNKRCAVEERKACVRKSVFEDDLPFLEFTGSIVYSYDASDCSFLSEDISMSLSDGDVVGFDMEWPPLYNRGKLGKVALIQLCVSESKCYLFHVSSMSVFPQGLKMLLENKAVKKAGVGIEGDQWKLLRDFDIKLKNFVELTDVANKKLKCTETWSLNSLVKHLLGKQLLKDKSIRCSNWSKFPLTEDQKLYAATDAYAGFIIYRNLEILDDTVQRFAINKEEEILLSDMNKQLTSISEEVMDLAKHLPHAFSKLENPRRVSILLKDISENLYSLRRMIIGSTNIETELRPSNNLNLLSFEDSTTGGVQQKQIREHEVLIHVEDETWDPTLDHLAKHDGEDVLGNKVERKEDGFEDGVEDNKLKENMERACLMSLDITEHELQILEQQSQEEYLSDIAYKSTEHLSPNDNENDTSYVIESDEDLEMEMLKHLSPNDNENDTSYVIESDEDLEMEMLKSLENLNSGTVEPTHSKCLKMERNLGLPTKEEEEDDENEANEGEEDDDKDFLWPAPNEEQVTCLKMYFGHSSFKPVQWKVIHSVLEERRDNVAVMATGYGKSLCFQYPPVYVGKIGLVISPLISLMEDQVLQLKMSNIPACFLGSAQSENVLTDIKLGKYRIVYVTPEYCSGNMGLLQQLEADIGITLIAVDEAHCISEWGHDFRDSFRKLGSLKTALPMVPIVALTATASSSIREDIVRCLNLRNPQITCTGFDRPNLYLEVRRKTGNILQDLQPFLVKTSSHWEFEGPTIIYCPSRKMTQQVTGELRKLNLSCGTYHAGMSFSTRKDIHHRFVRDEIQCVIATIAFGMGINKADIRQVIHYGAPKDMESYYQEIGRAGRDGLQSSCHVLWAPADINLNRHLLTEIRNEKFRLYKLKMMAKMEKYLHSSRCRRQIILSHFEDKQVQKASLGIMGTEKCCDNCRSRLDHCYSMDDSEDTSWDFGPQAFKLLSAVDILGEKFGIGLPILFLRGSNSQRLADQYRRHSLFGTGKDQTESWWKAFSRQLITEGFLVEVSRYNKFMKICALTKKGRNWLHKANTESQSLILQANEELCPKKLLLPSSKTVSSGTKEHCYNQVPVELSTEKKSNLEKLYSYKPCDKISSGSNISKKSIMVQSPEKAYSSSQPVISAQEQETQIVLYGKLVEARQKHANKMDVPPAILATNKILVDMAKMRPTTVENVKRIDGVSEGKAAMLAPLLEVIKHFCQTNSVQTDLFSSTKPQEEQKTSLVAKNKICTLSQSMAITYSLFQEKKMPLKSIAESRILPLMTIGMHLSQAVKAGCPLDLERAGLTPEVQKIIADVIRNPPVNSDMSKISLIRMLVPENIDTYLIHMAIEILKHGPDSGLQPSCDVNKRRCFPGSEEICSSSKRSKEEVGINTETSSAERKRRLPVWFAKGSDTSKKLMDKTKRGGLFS"},
  "source": "PubChem BioAssay AID651768",
  "about": "(National Center for Advancing Translational Sciences (NCATS), 2012)",
  "note": "The list shows a part of the results, in another mix than the full data. Calls of active or inactive are those of the source. Calls come from the whole dose curve; as a rule, active = well fitted inhibition curve with a large enough effect; inconclusive = small, poorly fitted or top-dose-only effect; inactive = no such curve, though single readings can be large or run the other way. % is set by controls: 0 for no effect and ±100 for the full control effect.",
  "data": [
    {"target": "Bifunctional 3'-5' exonuclease/ATP-dependent helicase WRN (Homo sapiens) (UniProt Q14191)", "experiment": "qHTS for Inhibitors of WRN Helicase; note: nearly all actives have a fitted effect of over 55% in size", "conditions": "WRN helicase unwinding, fluorescent forked duplex, kinetic; series mostly up to 114 µM; activity change, negative = inhibition: at the top concentration", "outline": "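Kinetic fluorescence helicase assay: unwinding of a quenched forked DNA duplex (100 nM final) with 2 mM ATP final raises red fluorescence (525/598 nm). Compounds sat 15 min at room temperature with 20 nM WRN beforehand.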", "values": [
      {"smiles": "NC(=O)c1cc([N+](=O)[O-])cc([N+](=O)[O-])c1N", "activity change, negative = inhibition": "inactive: -2.74%"},
      {"smiles": "Cc1ccc(N/C(=N/P(=O)(N2CCOCC2)N2CCOCC2)N2CCOCC2)cc1", "activity change, negative = inhibition": "inactive: 3.23%"},
      {"smiles": "COc1ccccc1OP(=O)(Nc1ccc(C)cn1)Oc1ccccc1OC", "activity change, negative = inhibition": "inactive: 8.35%"},
      {"smiles": "Cc1ccc(OP(=O)(Nc2nccs2)Oc2ccc(C)cc2)cc1", "activity change, negative = inhibition": "inactive: -19.6%"},
      {"smiles": "Clc1ccc(Cl)c(NC2=NCC(CBr)S2)c1", "note": "(stereo not given)", "activity change, negative = inhibition": "inactive: -5.37%"},
      {"smiles": "CN1CCCC(OC(=O)C(c2ccccc2)c2ccccc2)C1", "note": "(stereo not given)", "activity change, negative = inhibition": "inactive: 0.199% [at 57.1 µM]"},
      {"smiles": "CC(C)CC(=O)NC(Sc1ccc(Cl)cc1)C(Cl)(Cl)Cl", "note": "(stereo not given)", "activity change, negative = inhibition": "inactive: -5.35% [at 57.1 µM]"},
      {"smiles": "Nc1cc(N)c2nonc2c1[N+](=O)[O-]", "activity change, negative = inhibition": "inactive: -31.4%"},
      {"smiles": "Oc1ccccc1CNc1ccccn1", "activity change, negative = inhibition": "inactive: -11.8%"},
      {"smiles": "O=[N+]([O-])C1C(O)C(O)C([N+](=O)[O-])C(O)C1O", "note": "(stereo not given)", "activity change, negative = inhibition": "inactive: -5.13%"},
      {"smiles": "O=P1(Nc2nc3ccc(Cl)cc3s2)COc2ccccc2O1", "note": "(stereo not given)", "activity change, negative = inhibition": "inactive: 5.6%"},
      {"smiles": "CCOc1ccc(C2=NCC(CBr)S2)cc1", "note": "(stereo not given)", "activity change, negative = inhibition": "inactive: 2.83%"},
      {"smiles": "CCc1cc(O)c([N+](=O)[O-])c(C)c1[N+](=O)[O-]", "activity change, negative = inhibition": "inactive: -9.42%"},
      {"smiles": "CC(C)(C)C(=O)NC(Sc1ccccc1)C(Cl)(Cl)Cl", "note": "(stereo not given)", "activity change, negative = inhibition": "inactive: 2.08%"},
      {"smiles": "CC(=O)c1ccc(N2CC2c2ccncc2)cc1", "note": "(stereo not given)", "activity change, negative = inhibition": "inactive: 3.24%"},
      {"smiles": "COC(=O)C1(C)COP(=O)(NCc2ccccc2)OC1", "note": "(stereo not given)", "activity change, negative = inhibition": "inactive: 6.51%"},
      {"smiles": "Cc1ccccc1CN(C)C(=O)COC(=O)C(O)(c1ccccc1)c1ccccc1", "activity change, negative = inhibition": "inactive: -10.6%"},
      {"smiles": "C[C@@H]1C=CCP(=O)(Oc2ccccc2)O1", "note": "(stereo not given in full)", "activity change, negative = inhibition": "inactive: 5.17%"},
      {"smiles": "C[C@H]1OP(=O)(Oc2ccccc2)C[C@@H]2O[C@@H]21", "note": "(stereo not given in full)", "activity change, negative = inhibition": "inactive: 0.353%"},
      {"smiles": "CC(=O)Nc1ccc([As](=O)(O)O)c(O)c1", "activity change, negative = inhibition": "inactive: 1.93%"},
      {"smiles": "CC(=O)Nc1ccc(Oc2c([N+](=O)[O-])cc([N+](=O)[O-])cc2[N+](=O)[O-])cc1", "activity change, negative = inhibition": "inactive: -1.38%"},
      {"smiles": "CCNC(=S)/N=C(\\N)N[N+](=O)[O-]", "activity change, negative = inhibition": "inactive: 2.11%"},
      {"smiles": "O=C(NC1CCS(=O)(=O)C1)NP(=S)(Oc1ccccc1)Oc1ccccc1", "note": "(stereo not given)", "activity change, negative = inhibition": "inactive: -0.129% [at 57.1 µM]"},
      {"smiles": "c1ccc(-c2nn[nH]n2)c(-c2nn[nH]n2)c1", "activity change, negative = inhibition": "inactive: -24.3%"},
      {"smiles": "Cc1ccc(NP(=O)(Oc2cccc(C)c2)Oc2cccc(C)c2)nc1", "activity change, negative = inhibition": "inactive: 2.66%"},
      {"smiles": "O=P1(N(CCCl)CCCl)OCCC2CCCCN21", "note": "(stereo not given)", "activity change, negative = inhibition": "inactive: 1.51%"},
      {"smiles": "COC(=O)c1cc2c(s1)N=C(c1ccccc1)N(C)P2(=O)N1CCOCC1", "note": "(stereo not given)", "activity change, negative = inhibition": "inactive: 6.29%"},
      {"smiles": "Cc1ccc(OP(=O)(Nc2ccccn2)Oc2ccc(C)cc2)cc1", "activity change, negative = inhibition": "inactive: -1.34% [at 57.1 µM]"},
      {"smiles": "CC(=O)NC(SC(=S)N(CC(C)C)CC(C)C)C(Cl)(Cl)Cl", "note": "(stereo not given)", "activity change, negative = inhibition": "inactive: -14.7% [at 57.1 µM]"},
      {"smiles": "O=C(OC1CN2CCC1CC2)c1ccccc1", "note": "(stereo not given)", "activity change, negative = inhibition": "inactive: -7.33%"},
      {"smiles": "CCC(=O)N1C2C3N(C(=O)CC)C1C1N(C(=O)CC)C(C(N1C(=O)CC)N3C(=O)CC)N2C(=O)CC", "activity change, negative = inhibition": "inactive: 5.96%"},
      {"smiles": "Cc1ccccc1OP(=O)(Nc1ccccn1)Oc1ccccc1C", "activity change, negative = inhibition": "inactive: -21.2%"},
      {"smiles": "CC(NC(=O)COC(=O)C(O)(c1ccccc1)c1ccccc1)c1ccccc1", "note": "(stereo not given)", "activity change, negative = inhibition": "inactive: 0.403%"},
      {"smiles": "CN(C)C(=O)Oc1noc2ccccc12", "activity change, negative = inhibition": "inactive: -3.67%"},
      {"smiles": "Nc1ccc(CCCCOc2ccccc2)cc1", "activity change, negative = inhibition": "inactive: 3.85% [at 57.1 µM]"},
      {"smiles": "COc1ccc(N)c([N+](=O)[O-])c1[N+](=O)[O-]", "activity change, negative = inhibition": "inactive: -24.1%"},
      {"smiles": "O=P(Nc1ccccn1)(c1ccc(Br)cc1)c1ccc(Br)cc1", "activity change, negative = inhibition": "inactive: -1.65%"},
      {"smiles": "CN(C)C1(CNC(=O)c2ccc(Cl)c(S(N)(=O)=O)c2)CCCCC1", "activity change, negative = inhibition": "inactive: 6.07%"},
      {"smiles": "O=P(Nc1nc2ccccc2s1)(c1ccccc1)c1ccccc1", "activity change, negative = inhibition": "inactive: -8.62%"},
      {"smiles": "C[C@H]1OP(=O)(Oc2ccccc2)[C@H](O)[C@H](O)[C@H]1N=[N+]=[N-]", "note": "(stereo not given in full)", "activity change, negative = inhibition": "inactive: 3.19%"},
      {"smiles": "O=[N+]([O-])c1ccc(O)c(/C=N/Nc2ccc([N+](=O)[O-])cc2[N+](=O)[O-])c1", "activity change, negative = inhibition": "inactive: -14.1%"},
      {"smiles": "O=[N+]([O-])c1ncn(CCn2cnc([N+](=O)[O-])n2)n1", "activity change, negative = inhibition": "inactive: 8.92%"},
      {"smiles": "CC(=O)NC(SC(=S)N(C)C)C(Cl)(Cl)Cl", "note": "(stereo not given)", "activity change, negative = inhibition": "inactive: -9.27%"},
      {"smiles": "O=[As](O)(c1ccccc1)c1ccc(O)cc1", "activity change, negative = inhibition": "inactive: -2.61%"},
      {"smiles": "Nc1ccc([As](=O)(O)c2ccc([N+](=O)[O-])cc2)cc1", "activity change, negative = inhibition": "inactive: -6.75%"},
      {"smiles": "C(Cc1nn[nH]n1)Cc1nn[nH]n1", "activity change, negative = inhibition": "inactive: 0.472%"},
      {"smiles": "O=C(OC1CN2CCC1CC2)c1cccc(Cl)c1", "note": "(stereo not given)", "activity change, negative = inhibition": "inactive: 9.95%"},
      {"smiles": "CC(C)C(=O)NC(Sc1ccccc1)C(Cl)(Cl)Cl", "note": "(stereo not given)", "activity change, negative = inhibition": "inactive: -3.09%"},
      {"smiles": "O=P(Nc1nccs1)(c1ccccc1)c1ccccc1", "activity change, negative = inhibition": "inactive: 4.3%"},
      {"smiles": "c1nnnn1CCn1cnnn1", "activity change, negative = inhibition": "inactive: 0.34%"}
    ]}
  ]
}
